Measurements from patent US10640775B2, “Fusion protein, nanoparticle composed of a plurality of monomers of said fusion protein, and uses thereof” (Thena Biotech S.r.l., priority 2014, dated 2020).

Key:
[1] = Stability of the ferritin-doxorubicin complexes (% drug release over time, SEC); format: physicochemical; details: stored at 4° C. or 37° C.; compared to the native HFt construct; FIG. 10
Protocol: The stability of the ferritin-Doxorubicin complexes was tested at 4° C. and 37° C. in terms of % drug release over time. The % of doxorubicin released was assessed by size exclusion chromatography (SEC) by using a gel filtration Superose 6 column equilibrated with phosphate-buffered saline (PBS) at pH 7.5. All samples were prepared at 1 mg/mL in filtered PBS, following the absorbance at 280 and 485 nm.

[2] = injected through the systemic route; cited from earlier work

native HFt: Heavy chain of human ferritin, native sequence (SEQ ID NO: 1), forming 24-subunit nanoparticle
stability of the drug-bound form (% drug released over time) [1]: the material tended to become cloudy and precipitate | plasma half-life [2]: 2 to 3 h
